Results from patent US20250092033A1, “HETEROAROMATIC NITROGEN-OXIDE COMPOUND, PREPARATION METHOD THEREFOR, AND USE THEREOF” (BEIJING AVISTONE BIOTECHNOLOGY CO., LTD., priority 2021, published 2025).

Amino acid sequences for entries named in this document (tags omitted). A change or cut given only in a name is not applied to a line headed by its entry. Residues count along the entry.
UniProt P08581, 25-1390 limits assumed: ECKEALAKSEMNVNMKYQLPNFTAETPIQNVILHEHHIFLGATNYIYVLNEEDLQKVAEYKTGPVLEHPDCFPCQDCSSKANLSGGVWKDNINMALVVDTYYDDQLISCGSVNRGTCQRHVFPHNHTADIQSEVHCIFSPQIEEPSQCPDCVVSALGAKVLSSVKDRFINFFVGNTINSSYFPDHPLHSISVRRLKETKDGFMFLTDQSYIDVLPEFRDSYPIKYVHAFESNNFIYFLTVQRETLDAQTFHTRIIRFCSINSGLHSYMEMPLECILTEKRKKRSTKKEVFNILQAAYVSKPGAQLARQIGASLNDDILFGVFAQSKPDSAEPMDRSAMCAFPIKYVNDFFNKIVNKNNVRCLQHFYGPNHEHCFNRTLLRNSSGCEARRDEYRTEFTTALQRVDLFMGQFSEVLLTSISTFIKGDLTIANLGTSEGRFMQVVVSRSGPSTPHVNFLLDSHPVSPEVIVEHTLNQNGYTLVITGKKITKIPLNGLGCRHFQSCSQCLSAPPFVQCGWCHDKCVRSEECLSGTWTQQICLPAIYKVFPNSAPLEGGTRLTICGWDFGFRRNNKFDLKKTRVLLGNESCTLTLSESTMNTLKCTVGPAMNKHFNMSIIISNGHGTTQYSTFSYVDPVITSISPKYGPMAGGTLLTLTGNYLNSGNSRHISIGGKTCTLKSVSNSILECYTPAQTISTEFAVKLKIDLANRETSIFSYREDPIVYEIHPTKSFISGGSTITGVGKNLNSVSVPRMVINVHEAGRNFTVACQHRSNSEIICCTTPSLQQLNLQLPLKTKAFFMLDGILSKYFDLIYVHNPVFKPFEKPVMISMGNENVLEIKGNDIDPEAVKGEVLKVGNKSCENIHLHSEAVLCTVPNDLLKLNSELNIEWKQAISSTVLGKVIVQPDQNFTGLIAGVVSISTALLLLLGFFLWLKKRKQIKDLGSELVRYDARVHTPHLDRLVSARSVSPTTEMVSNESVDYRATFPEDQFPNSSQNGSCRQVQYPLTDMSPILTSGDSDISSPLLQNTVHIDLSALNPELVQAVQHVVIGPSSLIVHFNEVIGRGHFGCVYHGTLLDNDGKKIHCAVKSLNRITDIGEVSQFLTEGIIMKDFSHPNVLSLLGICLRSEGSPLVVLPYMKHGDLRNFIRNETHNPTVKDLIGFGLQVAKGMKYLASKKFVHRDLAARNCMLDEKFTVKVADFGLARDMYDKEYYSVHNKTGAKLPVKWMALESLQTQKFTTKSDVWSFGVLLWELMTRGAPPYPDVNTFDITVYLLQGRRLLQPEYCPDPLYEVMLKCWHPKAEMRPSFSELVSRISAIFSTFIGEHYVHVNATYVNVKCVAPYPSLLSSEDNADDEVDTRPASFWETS
UniProt P08581, 25-1390 D1228N limits assumed: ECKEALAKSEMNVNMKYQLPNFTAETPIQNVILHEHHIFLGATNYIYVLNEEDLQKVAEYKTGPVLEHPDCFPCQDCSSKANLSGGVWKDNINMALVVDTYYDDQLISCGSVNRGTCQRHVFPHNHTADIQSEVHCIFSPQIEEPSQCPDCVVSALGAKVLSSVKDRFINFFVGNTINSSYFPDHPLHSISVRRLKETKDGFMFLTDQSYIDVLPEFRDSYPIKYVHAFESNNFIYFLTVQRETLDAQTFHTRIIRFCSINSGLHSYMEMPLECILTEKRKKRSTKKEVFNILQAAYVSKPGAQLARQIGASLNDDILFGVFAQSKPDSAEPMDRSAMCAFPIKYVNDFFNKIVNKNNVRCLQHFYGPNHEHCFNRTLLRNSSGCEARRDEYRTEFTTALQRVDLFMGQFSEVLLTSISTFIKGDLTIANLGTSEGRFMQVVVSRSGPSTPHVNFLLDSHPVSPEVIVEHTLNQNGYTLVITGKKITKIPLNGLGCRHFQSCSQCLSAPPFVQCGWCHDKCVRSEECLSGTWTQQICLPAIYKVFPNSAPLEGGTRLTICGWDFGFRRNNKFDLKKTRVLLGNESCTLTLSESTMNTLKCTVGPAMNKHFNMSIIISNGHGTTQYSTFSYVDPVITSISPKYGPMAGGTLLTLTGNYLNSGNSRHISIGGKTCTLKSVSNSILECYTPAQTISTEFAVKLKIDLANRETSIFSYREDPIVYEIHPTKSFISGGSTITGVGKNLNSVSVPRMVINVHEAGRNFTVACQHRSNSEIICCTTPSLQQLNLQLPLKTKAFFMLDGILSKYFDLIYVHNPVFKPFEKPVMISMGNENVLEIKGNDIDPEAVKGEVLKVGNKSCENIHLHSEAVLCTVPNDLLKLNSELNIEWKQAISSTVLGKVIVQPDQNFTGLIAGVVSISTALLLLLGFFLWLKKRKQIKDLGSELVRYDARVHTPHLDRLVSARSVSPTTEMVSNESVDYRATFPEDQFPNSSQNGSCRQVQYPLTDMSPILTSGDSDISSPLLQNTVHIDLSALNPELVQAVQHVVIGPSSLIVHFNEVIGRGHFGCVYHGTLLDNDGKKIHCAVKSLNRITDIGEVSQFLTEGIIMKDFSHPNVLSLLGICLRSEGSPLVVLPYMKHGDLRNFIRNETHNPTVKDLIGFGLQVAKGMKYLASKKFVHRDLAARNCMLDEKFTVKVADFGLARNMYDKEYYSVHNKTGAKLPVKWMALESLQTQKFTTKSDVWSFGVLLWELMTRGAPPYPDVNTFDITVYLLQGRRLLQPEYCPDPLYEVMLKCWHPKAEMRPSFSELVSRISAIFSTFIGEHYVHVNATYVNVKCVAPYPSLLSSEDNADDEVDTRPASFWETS
UniProt P08581, 25-1390 F1200I limits assumed: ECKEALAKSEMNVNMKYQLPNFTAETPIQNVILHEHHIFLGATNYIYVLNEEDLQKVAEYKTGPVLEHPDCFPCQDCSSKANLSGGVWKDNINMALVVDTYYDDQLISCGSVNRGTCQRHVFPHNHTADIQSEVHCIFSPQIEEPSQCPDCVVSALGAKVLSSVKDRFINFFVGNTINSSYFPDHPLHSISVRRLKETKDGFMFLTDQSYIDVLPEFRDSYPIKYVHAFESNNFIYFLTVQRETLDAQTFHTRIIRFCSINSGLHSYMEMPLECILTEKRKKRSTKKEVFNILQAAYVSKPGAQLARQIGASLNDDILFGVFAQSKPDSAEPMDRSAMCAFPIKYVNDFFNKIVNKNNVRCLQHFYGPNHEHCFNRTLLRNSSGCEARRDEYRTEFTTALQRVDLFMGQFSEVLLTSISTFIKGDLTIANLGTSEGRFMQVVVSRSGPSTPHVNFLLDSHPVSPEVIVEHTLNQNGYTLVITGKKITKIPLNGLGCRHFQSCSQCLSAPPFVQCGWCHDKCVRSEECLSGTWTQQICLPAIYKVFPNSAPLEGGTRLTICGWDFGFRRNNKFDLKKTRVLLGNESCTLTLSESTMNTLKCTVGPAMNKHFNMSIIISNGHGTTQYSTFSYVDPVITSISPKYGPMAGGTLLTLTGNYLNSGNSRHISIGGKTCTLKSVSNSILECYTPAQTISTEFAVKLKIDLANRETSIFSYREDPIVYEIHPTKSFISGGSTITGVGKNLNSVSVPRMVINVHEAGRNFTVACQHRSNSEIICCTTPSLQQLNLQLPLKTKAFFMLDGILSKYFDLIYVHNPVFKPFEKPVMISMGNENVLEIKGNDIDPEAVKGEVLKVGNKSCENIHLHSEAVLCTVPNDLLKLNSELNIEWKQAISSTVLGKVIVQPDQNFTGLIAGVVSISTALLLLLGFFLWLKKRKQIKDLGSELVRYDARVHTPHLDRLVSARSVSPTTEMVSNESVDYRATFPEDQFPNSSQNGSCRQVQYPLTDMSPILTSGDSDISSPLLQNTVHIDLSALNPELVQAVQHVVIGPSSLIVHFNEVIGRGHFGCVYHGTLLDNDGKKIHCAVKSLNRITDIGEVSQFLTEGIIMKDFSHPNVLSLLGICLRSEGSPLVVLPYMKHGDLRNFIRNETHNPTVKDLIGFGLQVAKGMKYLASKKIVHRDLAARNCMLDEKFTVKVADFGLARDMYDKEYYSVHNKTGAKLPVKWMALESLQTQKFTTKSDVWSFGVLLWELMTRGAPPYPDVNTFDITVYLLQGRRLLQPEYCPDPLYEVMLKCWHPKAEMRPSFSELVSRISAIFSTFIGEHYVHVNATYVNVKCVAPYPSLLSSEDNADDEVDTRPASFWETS

Experiments:
[1] = target: wild type (WT) MET kinase (Homo sapiens, UniProt P08581); test: Kinase inhibition experiment (HTRF KinEASE-TK kit), wild-type MET; type: biochemical; details: read-out: IC50 (nM) of inhibition of wild type (WT) MET kinase, 10 concentrations, 3-fold dilution
Protocol: (§1) The activity of the compounds was determined by detecting the residual amount of ATP after reacting with wild-type or mutant MET protein kinase by using an HTRF KinEASE-TK kit. […]
(§2) The compounds were determined on the selected kinase, the solvent control was set and a total of 10 concentrations were detected, diluted 3-fold, 2 replicates per concentration.
(§3) 1 volume of 5× kinase reaction buffer and 4 volumes of water; 5 mM MgCl2; 1 mM DTT; 1 mM MnCl2; or 2500 nm SEB.
(§4) 1) 10 nl or 4 μlof the diluted compound was transferred to each well of the reaction plate (784075 or 264706, Greiner or Thermo) with a pipette, the reaction plate was sealed with a sealing plate, and centrifuged at 1000 for 1 minute.
(§5) 2) 2× MET was prepared from 1× enzyme reaction buffer, 5 μl or 2 μl kinase was added to each well of the reaction plate, the reaction plate was sealed with a sealing plate, centrifuged at 1000 g for 30 seconds and incubated at room temperature for 10 min.
(§6) 3) a mixed solution of 2× TK-substrate-biotin and ATP were prepared from 1× enzyme reaction buffer solution, 5 μl or 2 μl TK-substrate-biotin/ATP of the mixed solution was added into a reaction plate, the reaction plate was sealed with a sealing plate, centrifuged at 1000 g for 30 seconds and reacted for 50 minutes or 10 minutes at room temperature.
(§7) 4) a mixed solution of 4× or 2× Sa-XL 665 and TK-antibody-Cryptate were prepared from HTRF detection buffer, 5 or 10 μl of the mixed solution of Sa-XL 665 and TK-antibody-Cryptate was added into each well, centrifuged at 1000 g for 30 seconds, and reacted at room temperature for 1 h.
(§8) 5) the fluorescence signals at 615 nm (cryptate) and 665 nm (XL665) were read with Envision 2104 or TECAN.
(§9) The data was analyzed using GraphPad Prism 6.0 or 7 software, and the dose-response curve was fitted with nonlinear S-curve regression, and the IC50 value was calculated therefrom.
(§10) Enzyme Inhibition Percent (%)=100-(Signalmpd-SignalAve_PC)/(SignalAve_VC-SignalAve_PC)×100

MET D1228N = MET D1228N (Homo sapiens, UniProt P08581, D1228N); test: Kinase inhibition experiment (HTRF KinEASE-TK kit), mutant MET D1228N; type: biochemical; details: read-out: IC50 (nM) of inhibition of mutant D1228N MET kinase, 10 concentrations, 3-fold dilution
Protocol: as §1, §2, §3, §4, §5, §6, §7, §8, §9, §10

MET F1200I = MET F1200I (Homo sapiens, UniProt P08581, F1200I); test: Kinase inhibition experiment (HTRF KinEASE-TK kit), mutant MET F1200I; type: biochemical; details: read-out: IC50 (nM) of inhibition of mutant F1200I MET kinase, 10 concentrations, 3-fold dilution
Protocol: as §1, §2, §3, §4, §5, §6, §7, §8, §9, §10

Hs746T cell line = test: Cell proliferation inhibition experiment (CellTiter-Glo), Hs746T; details: read-out: IC50 (nM) of the proliferation inhibition of Hs746T cell line; Hs 746T; CTG; 72 h
Protocol: CellTiter-Glo™ live cell detection kit adopts luciferase as the detection substance, and the luciferase needs the participation of ATP in the luminescence process. CellTiter-Glo™ reagent was added into the cell culture medium and the luminescence value was measured. The light signal is in direct proportion to the amount of ATP in the system, ATP is in direct correlation with number of living cells. Therefore, the proliferation of cells can be detected by detecting the content of ATP with CellTiter-Glo kit.
In the experiment, the proliferation inhibition effect of the prepared compounds on tumor cell lines Hs746T, EBC-1 and H1993 was measured by a celltiter-glo (CTG) method, and 50% inhibition concentration IC50 was calculated.
The compounds were determined on the selected cells, the solvent control was set and a total of 10 concentrations were detected, 2 replicates per concentration.
a) Cells in the logarithmic growth phase were harvested and counted by a […]. The cell viability was detected by a trypan blue exclusion method to ensure that the cell viability was over 90%. […]
d) The cell plate was left at room temperature for 20 minutes to stabilize the luminescence signal.
e) The cold light value was read.
The data was analyzed by GraphPad Prism 8 software, and the dose-response curve was fitted with nonlinear S-curve regression, and the IC50 value was calculated therefrom. […]

Question: Which results are given for `C[C@H](CO)Nc1n[nH]c2nccc(Oc3ccc(NC(=O)c4cccc(-c5cccc(C(F)(F)F)c5)[n+]4[O-])cc3F)c12`?
Answer: IC50 [1]: 5.3 nM; IC50 (MET D1228N): 36.8 nM

Question: How did the IC50 [1] turn out when `Cc1cc(F)ccc1-c1cccc(C(=O)Nc2ccc(Oc3ccnc4[nH]nc(N[C@H](C)CO)c34)c(F)c2)[n+]1[O-]` was run?
Answer: The IC50 was 4.6 nM.

Question: What about the IC50 (MET F1200I) of the same molecule?
Answer: Its IC50 is 13.1 nM.

Question: And the IC50 (MET D1228N)?
Answer: The IC50 was 27.8 nM.

Question: `C=CC(O)CNc1n[nH]c2nccc(Oc3ccc(NC(=O)c4cccc(-c5ccc(F)cc5)[n+]4[O-])cc3F)c12` (centres unmarked) was tested. Which IC50 [1] did it give?
Answer: The IC50 was 4.1 nM.

Question: What about the IC50 (MET F1200I) of the same molecule?
Answer: Its IC50 is 32.7 nM.

Question: And the IC50 (MET D1228N)?
Answer: The IC50 was 25.7 nM.

Question: How did the IC50 [1] turn out when `O=C(Nc1ccc(Oc2ccnc3[nH]nc(NCC4(O)CC4)c23)c(F)c1)c1cccc(-c2ccc(F)cc2)[n+]1[O-]` was run?
Answer: The IC50 was 5.3 nM.

Question: And the IC50 (MET F1200I)?
Answer: The IC50 was 26.5 nM.

Question: And the IC50 (MET D1228N)?
Answer: Its IC50 is 20.9 nM.

Question: And the IC50 (Hs746T cell line)?
Answer: Its IC50 is 20.9 nM.

Question: What does the source list for `C[C@H](CO)Nc1n[nH]c2nccc(Oc3ccc(NC(=O)c4cccc(-c5ccc(F)cc5)[n+]4[O-])cc3C(F)(F)F)c12`?
Answer: IC50 [1]: 6.4 nM; IC50 (MET F1200I): 8.6 nM; IC50 (MET D1228N): 23.8 nM

Question: Which IC50 [1] does the source give for `C[C@H](CO)Nc1n[nH]c2nccc(Oc3ccc(NC(=O)c4cc(Cl)cc(-c5ccc(F)cc5)[n+]4[O-])cc3F)c12` here?
Answer: The IC50 was 6.5 nM.

Question: And the IC50 (MET F1200I)?
Answer: Its IC50 is 28.1 nM.

Question: What about the IC50 (MET D1228N) of the same molecule?
Answer: The IC50 was 16.9 nM.

Question: How did the IC50 [1] turn out when `C[C@H](CO)Nc1n[nH]c2nccc(Oc3ncc(NC(=O)c4cccc(-c5ccc(F)cc5)[n+]4[O-])cc3F)c12` was run?
Answer: The IC50 was 5.2 nM.

Question: What about the IC50 (MET D1228N) of the same molecule?
Answer: Its IC50 is 24.5 nM.

Question: How did the IC50 [1] turn out when `Cc1ccc(C(=O)Nc2ccc(Oc3ccnc4[nH]nc(NC5CC(CO)C5)c34)c(Cl)c2)[n+]([O-])c1-c1ccc(F)cc1` (centres unmarked) was run?
Answer: Its IC50 is 7 nM.

Question: What about the IC50 (MET F1200I) of the same molecule?
Answer: The IC50 was 35.2 nM.

Question: And the IC50 (MET D1228N)?
Answer: Its IC50 is 48.7 nM.

Question: With `C[C@H](CO)Nc1n[nH]c2nccc(Oc3ccc(NC(=O)c4cccc(-c5ccc(F)cc5)[n+]4[O-])nc3)c12` as the molecule, how does the IC50 [1] read?
Answer: The IC50 was 6.3 nM.

Question: What about the IC50 (MET F1200I) of the same molecule?
Answer: The IC50 was 12 nM.

Question: What about the IC50 (MET D1228N) of the same molecule?
Answer: The IC50 was 23.5 nM.

Question: How did the IC50 [1] turn out when `C[C@H](CO)Nc1n[nH]c2nccc(Oc3ccc(NC(=O)c4cccc(-c5ccc(F)cc5Cl)[n+]4[O-])cc3F)c12` was run?
Answer: Its IC50 is 25.9 nM.

Question: What about the IC50 (MET F1200I) of the same molecule?
Answer: Its IC50 is 15.1 nM.

Question: What about the IC50 (MET D1228N) of the same molecule?
Answer: The IC50 was 27.1 nM.

Question: Which results are given for `C[C@H](CO)Nc1n[nH]c2nccc(Oc3ccc(NC(=O)c4cccc(-c5ccc(F)cc5)[n+]4[O-])cc3)c12`?
Answer: IC50 [1]: 2.2 nM; IC50 (MET F1200I): 15.7 nM; IC50 (MET D1228N): 29.3 nM

Question: Which IC50 [1] does the source give for `C[C@H](CO)Nc1n[nH]c2nccc(Oc3ccc(NC(=O)c4cccc(-c5ccc(F)cc5)[n+]4[O-])c(F)c3)c12` here?
Answer: Its IC50 is 0.4 nM.

Question: What about the IC50 (MET F1200I) of the same molecule?
Answer: The IC50 was 5.6 nM.

Question: And the IC50 (MET D1228N)?
Answer: The IC50 was 16.8 nM.

Question: Which results are given for `C[C@H](CO)Nc1n[nH]c2nccc(Oc3ccc(NC(=O)c4cccc(-c5ccc(F)c(F)c5)[n+]4[O-])cc3F)c12`?
Answer: IC50 [1]: 8.2 nM; IC50 (MET F1200I): 14.6 nM; IC50 (MET D1228N): 23.6 nM
